Data reported in patent US7998985B2, “1,5-diphenyl-3-pyridinylamino-1,5-dihydropyrrolidin-2-one as CB1 receptor modulator” (Eli Lilly and Company, priority 2006, dated 2011).

Tested on: female Sprague-Dawley rats
Experiment: Atypical antipsychotic (olanzapine) weight gain model
Type: in vivo, rat
Conditions: olanzapine 2 mg/kg po once daily for 14 days
Procedure: Methods: Maintain adult lean, female Sprague-Dawley rats ad libitum on normal rodent chow Purina LabDiet 5001 (12.3% fat) and water. Treat one group (n=7) with vehicle (1% lactic acid) on days 1-14 vehicle while treating the rest with olanzapine (2 mg/kg, po). Follow food intake, monitor body weight and change in fat mass over a two week treatment. After 14 days of drug delivery, divide the olanzapine treated animals (n=8 per group) and treat one group with 0.3 mg/kg Example 2 plus olanzapine, treat a second group with 1 mg/kg Example 2 plus olanzapine and treat the final group with vehicle plus olanzapine for days 15-28. […] Conclusions: Produce a significant reduction in body weight from vehicle treated controls by daily oral administration of Example 2 for 14 days to diet-induced obese (DIO), male Long-Evans rats maintained on a high-energy diet reduced food intake. Estimate the efficacy dose (T17) of 0.13 mg/kg/day for Example 2 for producing a change in body mass from control. Analyze changes in body composition to determine that the reduced body mass results from a significant reduction in fat mass at doses up to 10 mg/kg (the highest dose tested). Evaluate with a once daily oral administration of Example 2 for 14 days to two week olanzapine treated, female Sprague-Dawley rats to help to produce a significant reduction in fat mass compared to that of olanzapine treated controls.

Structure (SMILES): Cc1cc2c(s1)Nc1ccccc1N=C2N1CCN(C)CC1 [olanzapine, reference compound]
- cumulative food intake, body weight and fat mass vs vehicle controls: treatment emergent increases in cumulative food intake, body weight and fat mass
